Source: ChEMBL document CHEMBL2177065, “14-Alkoxy- and 14-acyloxypyridomorphinans: μ agonist/δ antagonist opioid analgesics with diminished tolerance and dependence side effects” (J Med Chem, 2012)

Protein sequences, listed by entry. Tags and fused reporters are not part of them. Lines headed by an entry give the natural chain unless they say otherwise; changes in a name come on top.
UniProt P41145: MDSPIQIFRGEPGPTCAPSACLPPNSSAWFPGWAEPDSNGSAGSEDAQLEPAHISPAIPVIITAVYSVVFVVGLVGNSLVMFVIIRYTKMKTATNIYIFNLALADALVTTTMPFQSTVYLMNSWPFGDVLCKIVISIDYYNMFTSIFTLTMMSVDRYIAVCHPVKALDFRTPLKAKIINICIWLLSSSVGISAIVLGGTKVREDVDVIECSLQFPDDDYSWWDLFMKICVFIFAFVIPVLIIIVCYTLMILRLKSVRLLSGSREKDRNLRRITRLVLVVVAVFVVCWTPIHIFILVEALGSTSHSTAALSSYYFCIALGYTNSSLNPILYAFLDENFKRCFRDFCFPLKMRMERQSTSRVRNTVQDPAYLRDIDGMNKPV

Target: Kappa-type opioid receptor (Homo sapiens, UniProt P41145)
Assay: Displacement of [3H]U69,593 from human kappa opioid receptor expressed in CHO cells by scintillation counting analysis
Format: cell-based

Question: Which Ki does the source give for `Oc1ccc2c3c1O[C@H]1c4ncc(-c5ccc(Cl)cc5)cc4C[C@@]4(OCCCc5ccccc5)[C@@H](C2)N(CC2CC2)CC[C@]314` here?
Answer: 1.82 nM
